A value given as a limit tells only on which side of the number the result lay.

By UniProt entry, the sequences of proteins in these tests, tags left out. Residues count along the entry.
UniProt P22607, 23-806: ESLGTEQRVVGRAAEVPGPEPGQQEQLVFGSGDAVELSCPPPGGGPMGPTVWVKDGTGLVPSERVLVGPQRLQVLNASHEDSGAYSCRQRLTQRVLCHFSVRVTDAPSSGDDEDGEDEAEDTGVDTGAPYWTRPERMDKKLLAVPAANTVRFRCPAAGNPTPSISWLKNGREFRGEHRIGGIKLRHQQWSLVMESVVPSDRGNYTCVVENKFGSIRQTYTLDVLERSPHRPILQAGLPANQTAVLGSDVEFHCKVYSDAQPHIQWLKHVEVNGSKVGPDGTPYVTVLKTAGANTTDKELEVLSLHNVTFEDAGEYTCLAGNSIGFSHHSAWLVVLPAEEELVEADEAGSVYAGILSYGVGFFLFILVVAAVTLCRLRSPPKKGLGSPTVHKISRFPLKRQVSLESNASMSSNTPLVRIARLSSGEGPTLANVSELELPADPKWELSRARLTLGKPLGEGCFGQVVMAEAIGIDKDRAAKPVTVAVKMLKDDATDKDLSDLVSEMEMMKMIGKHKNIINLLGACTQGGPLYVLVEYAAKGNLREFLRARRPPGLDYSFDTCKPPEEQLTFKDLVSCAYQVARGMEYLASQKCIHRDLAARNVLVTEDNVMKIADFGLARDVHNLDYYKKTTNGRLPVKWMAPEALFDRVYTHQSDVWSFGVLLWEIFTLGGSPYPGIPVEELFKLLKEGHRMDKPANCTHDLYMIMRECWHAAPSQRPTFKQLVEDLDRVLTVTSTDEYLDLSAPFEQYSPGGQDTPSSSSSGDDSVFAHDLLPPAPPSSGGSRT

The record followed here is patent US10251892B2, “Bicyclic heterocycles as FGFR4 inhibitors” (Incyte Corporation, priority 2015, dated 2019).

This experiment concerns the target FGFR3 enzyme (Homo sapiens (Human), UniProt P22607). Nature of the experiment: FGFR Enzymatic Assay (peptide phosphorylation, FRET), FGFR3. Type of experiment: biochemical. The method, then: The inhibitor potency of the exemplified compounds was measured in an enzyme assay that measures peptide phosphorylation using FRET measurements to detect product formation. Inhibitors were serially diluted in DMSO and a volume of 0.5 μL was transferred to the wells of a 384-well plate.
GraphPad prism3 was used to analyze the data.

On to `CCN1C(=O)N(c2c(F)c(OC)cc(OC)c2F)Cc2cnc(-c3ccc(C(=O)NC)nc3)cc21` [Example 24, 5-(3-(2,6-difluoro-3,5-dimethoxyphenyl)-1-ethyl-2-oxo-1,2,3,4-tetrahydropyrido[4,3-d]pyrimidin-7-yl)-N-methylpicolinamide], for which the FGFR1/FGFR3 is reported as >5.
